In BindingDB's records for doi:10.1038/sj.bjp.0702751 (Cerebrus, 1999) one finds Ki data, which are given here for two compounds.

The chains behind the UniProt entries cited, without tags or fusion partners. Where a name states a change or a piece, a line headed by the entry shows the natural chain unless it says otherwise.
UniProt P28335: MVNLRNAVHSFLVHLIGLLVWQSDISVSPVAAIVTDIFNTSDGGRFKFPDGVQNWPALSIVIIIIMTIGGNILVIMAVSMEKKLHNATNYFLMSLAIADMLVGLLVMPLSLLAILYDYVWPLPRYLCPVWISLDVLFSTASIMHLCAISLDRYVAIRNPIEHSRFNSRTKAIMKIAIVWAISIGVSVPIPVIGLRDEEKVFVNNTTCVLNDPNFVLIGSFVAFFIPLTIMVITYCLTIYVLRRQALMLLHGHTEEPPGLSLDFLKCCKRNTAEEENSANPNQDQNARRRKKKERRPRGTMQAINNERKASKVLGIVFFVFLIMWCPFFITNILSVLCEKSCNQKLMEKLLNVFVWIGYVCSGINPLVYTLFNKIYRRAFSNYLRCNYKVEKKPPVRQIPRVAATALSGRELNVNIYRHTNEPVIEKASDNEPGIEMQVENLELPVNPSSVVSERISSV
UniProt P28223, whole entry: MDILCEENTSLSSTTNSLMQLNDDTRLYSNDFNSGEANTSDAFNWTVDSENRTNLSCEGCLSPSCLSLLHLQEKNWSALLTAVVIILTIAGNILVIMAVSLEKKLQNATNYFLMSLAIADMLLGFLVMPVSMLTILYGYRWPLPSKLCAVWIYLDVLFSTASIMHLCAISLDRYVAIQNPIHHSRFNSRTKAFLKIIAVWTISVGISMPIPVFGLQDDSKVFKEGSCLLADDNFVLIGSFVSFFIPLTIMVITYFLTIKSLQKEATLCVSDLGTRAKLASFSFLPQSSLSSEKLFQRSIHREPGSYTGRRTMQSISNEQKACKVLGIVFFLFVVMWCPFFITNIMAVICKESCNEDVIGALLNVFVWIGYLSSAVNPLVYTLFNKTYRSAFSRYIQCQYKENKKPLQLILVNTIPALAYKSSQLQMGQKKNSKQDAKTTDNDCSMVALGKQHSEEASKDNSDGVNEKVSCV
UniProt P41595, whole entry: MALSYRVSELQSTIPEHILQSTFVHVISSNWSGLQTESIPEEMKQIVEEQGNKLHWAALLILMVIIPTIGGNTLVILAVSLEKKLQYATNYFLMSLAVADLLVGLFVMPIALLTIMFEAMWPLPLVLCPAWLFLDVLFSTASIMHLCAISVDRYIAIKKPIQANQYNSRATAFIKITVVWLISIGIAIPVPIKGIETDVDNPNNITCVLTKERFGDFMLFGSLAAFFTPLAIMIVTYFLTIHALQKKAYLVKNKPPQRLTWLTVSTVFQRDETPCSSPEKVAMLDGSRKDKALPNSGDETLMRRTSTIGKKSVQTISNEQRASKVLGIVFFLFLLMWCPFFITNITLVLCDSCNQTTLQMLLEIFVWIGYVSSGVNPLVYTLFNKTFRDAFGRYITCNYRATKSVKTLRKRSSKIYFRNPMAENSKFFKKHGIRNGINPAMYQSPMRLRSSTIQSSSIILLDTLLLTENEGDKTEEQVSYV

The target in experiment [1] is 5-hydroxytryptamine receptor 2C (Homo sapiens, UniProt P28335).
Experiment [2] deals with 5-hydroxytryptamine receptor 2A (Homo sapiens, UniProt P28223).
The target of experiment [3] is 5-hydroxytryptamine receptor 2B (Homo sapiens, UniProt P41595).

The term Ki denotes the equilibrium dissociation constant of an inhibitor or competing ligand from its target. Read a low Ki as a stronger hold on the target.

With `Clc1cccc(N2CCNCC2)c1` [mCPP], the Ki came to 81.3 nM in experiment [1], 224 nM in experiment [2] and 63.1 nM in experiment [3].

For `CC(N)Cc1c[nH]c2ccc(OCc3cccs3)cc12` (centres undefined) [NSC_5311036], affinity in experiment [3] was put at a Ki of 1.07 nM.
